Results: patent publication US9701959B2, “High throughput screen for biologically active polypeptides” (Invenra Inc., priority 2012, dated 2017)

The chains behind the UniProt entries cited, without tags or fusion partners. A line that says so, or that is headed by a name, gives the form on record, which may keep a tag or linker.
UniProt P01375, with tags, fused parts or gaps: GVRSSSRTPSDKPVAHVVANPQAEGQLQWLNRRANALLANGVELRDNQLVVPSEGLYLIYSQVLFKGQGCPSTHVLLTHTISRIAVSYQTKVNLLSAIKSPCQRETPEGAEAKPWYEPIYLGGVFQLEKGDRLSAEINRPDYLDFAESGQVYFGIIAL

Target: T1, TNF-alpha (Homo sapiens, UniProt P01375)
T1 construct: Construct 2 consisted of a His-tag, a spacer, TEV cleavage site and the soluble form of TNF-alpha; His-tag (hexahistidine) (N, cleaved yes); spacer GSGGSG (N, cleaved yes); TEV cleavage site (ENLYFQG) (N, cleaved yes); made in house; host or cells: cell-free expression (RTS 100 HY Cell Free Expression kit, 5 Prime), then cleavage with HaloTEV
Assay: Testing of antibody fragment binding on beads (anti-TNF-alpha-FITC, epifluorescence microscopy)
Conditions: beads treated with cleaved TNF-alpha supernatant 1 hour, detected with anti-TNF-alpha-FITC antibody
Procedure: Equipment: • Epifluorescence microscope with camera (Zeiss Axioskop)
Reagents and supplies: • Wash buffer (PBS+20 mM Imidazole+0.05% Tween20) • anti-TNF-alpha-FITC antibody (Abcam, ab65099) • Microscope slides (Fisher Scientific) • Cover slips (CapitolBrand M3453-2222, 22 mm Length, 22 mm Width, #1 Thick) • Protein and DNA loaded bi-functional beads (scFv and control) • cleaved TNF-alpha supernatant
1. Beads with expressed scFv or control protein were treated with the cleaved TNF-alpha supernatant for 1 hour.
2. Beads were washed twice with wash buffer
3. Beads were incubated for 1 hour in wash buffer containing 1 mg anti-TNF-alpha-FITC antibody
4. Beads from the scFv and control samples were dispensed separately onto microscope slides and covered with cover slips.
5. Photomicrographs were captured using an epifluorescence microscope with an attached camera.
6. The photomicrographs were analyzed using CellProfiler software to determine the integrated fluorescence intensity of each bead detected.

B1: scFv: His-tag, spacer, TEV site, spacer, single-chain antibody fragment with variable sequence known to bind TNF-alpha, SEQ ID NO: 12 (protein)
scFv: MHHHHHHGSGGSGENLYFQGGSGGSGDIQMTQSPSSLSASVGDRVTITCKASQNVGTNVAWYQQKPGKAPKALIYSASFLYSGVPYRFSGSGSGTDFTLTISSLQPEDFATYYCQQYNIYPLTFGQGTKVEIKGGGGSGGGGSGGGGSGGGGSEVQLVESGGGLVQPGGSLRLSCAASGYVFTDYGMNWVRQAPGKGLEWMGWINTYIGEPIYADSVKGRFTFSLDTSKSTAYLQMNSLRAEDTAVYYCARGYRSYAMDYWQQGTLVTVSS
- Binding of bead-expressed protein to TNF-alpha (bead fluorescence intensity): binds to TNF-alpha
